These results are taken from ChEMBL document CHEMBL1131447 (J Med Chem, 1998).

Amino acid sequences for entries named in this document (tags omitted).
UniProt P18901, whole entry: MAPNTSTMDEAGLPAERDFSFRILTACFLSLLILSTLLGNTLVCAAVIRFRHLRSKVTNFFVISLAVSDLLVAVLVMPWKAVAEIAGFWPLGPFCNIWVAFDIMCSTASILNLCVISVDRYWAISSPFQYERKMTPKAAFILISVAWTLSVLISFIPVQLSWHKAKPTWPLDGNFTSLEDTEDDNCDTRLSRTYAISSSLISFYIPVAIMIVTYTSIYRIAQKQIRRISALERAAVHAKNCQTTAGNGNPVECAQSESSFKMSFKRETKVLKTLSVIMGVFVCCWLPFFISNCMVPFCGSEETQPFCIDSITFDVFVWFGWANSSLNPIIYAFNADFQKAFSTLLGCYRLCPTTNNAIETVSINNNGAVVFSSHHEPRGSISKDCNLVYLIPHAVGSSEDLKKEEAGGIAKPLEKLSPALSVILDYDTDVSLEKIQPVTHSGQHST

The assay concerns the target D(1A) dopamine receptor (Rattus norvegicus, UniProt P18901). The assay can be described thus: biochemical.

Usually Ki stands for a measure of affinity in units of concentration, obtained from inhibition or displacement. A low value points to higher affinity. Compound `Cc1nc2n(c(=O)c1CCN1CCC(c3noc4cc(F)ccc34)CC1)CCCC2` [RISPERIDONE] came in with a Ki of 251 nM.
